Data as given in patent US20240165259A1, “BIOORTHOGONAL REACTION SUITABLE FOR CLICK/UNCLICK APPLICATIONS” (DANA-FARBER CANCER INSTITUTE, INC., priority 2021, published 2024).

System: SK-BR-3 HER2+ breast cancer cells
Assay: Cell viability assay (CellTiter-Glo), SK-BR-3
Assay type: cell-based
Conditions: SK-BR-3, 72 h, same concentrations
Description: SK-BR-3 cells were treated with […]-100 nM trastuzumab-MMAE 61″ in the presence or absence of 50 μM B2pin2, cultured for 72 h, and assayed using the CellTiter-Glo® cell viability assay. The IC50 of the ADC was insensitive to the presence or absence of diboron and recapitulated the IC50 of MMAE alone.
As further control, trastuzumab was replaced with a human IgG isotype control, employing ADC 62″. […] This N-oxide-based drug delivery platform provides a convenient mechanism for loading drugs onto antibodies as well as an appealing alternative to existing methods for the fast and complete release of drug molecules from their carriers.
Cell culture: Cells were cultured in RPMI (SK-BR-3) or DMEM (MDA-MB-231) containing 10% FBS (Sigma), 100 units/mL penicillin, and 0.1 mg/mL streptomycin (Sigma) in a humidified chamber at 37° C. under an ambient atmosphere with 5% CO2. […]
Cell viability assay: SK-BR-3 or MDA-MB-231 cell were seeded at a density of 5,000-10,000 cells per well in media [100 μL, RPMI (SK-BR-3) or DMEM (MDA-MB-231) supplemented with 5% heat-inactivated human serum (Sigma), penicillin (100 units/mL), streptomycin (0.1 mg/mL)] in an opaque 96-well plate. […] The plates were incubated at room temperature for 10 min to stabilize the luminescence signal and analyzed by a microplate reader (Clariostar Plus, BMG Labtech) (FIG. 48 and FIG. 49).

With “trastuzumab: Trastuzumab: Biosynth FT65040, unmodified antibody control” the “activity on cell viability” value was “little activity”.
